Converted amounts (≈) assume the structure as drawn.
Assay: Powder dissolution profiling (intrinsic dissolution rate and apparent solubility) in PhB 6.5 and FeSSIF pH 6.5
Details: 37 °C, pH 6.5, fessif, thermodynamic from solid, Apparent Solubility assay 1, FeSSIF pH 6.5, 37° C.; assay time polymorph B 16 hours, polymorph C 1.3 hours; triplicate
Procedure: Phosphate buffer pH 6.5 (PhB 6.5) was prepared according to a protocol by Galia and co-workers (Galia, E., et al. Evaluation of various dissolution media for predicting in vivo performance of class I and II drugs. Pharm Res 15, pp. 698-705 (1998)). Briefly, 1000 mL of […] Na2HPO4 buffer pH 6.5 was prepared by dissolving 3.95 g Na2HPO4xH2O, 6.19 g NaCl and 0.42 g NaOH in a volumetric flask by adding purified water. The pH was adjusted to pH to 6.5 by titration with 0.5 M NaOH and the volume was adjusted to 1000 mL with purified water. This buffer was sterile filtered and thereafter stored in refrigerator. […]
Dissolution rate and apparent solubility was measured with the pDISS Profiler™ (pION INC, MA, USA) from 0.3-1.3 mg compound weighed into the vial to which the preheated (37° C.) dissolution medium was added. […] The obtained results were analysed with the software accompanying the pDISS equipment. […]

COc1cc([C@@H]2c3cc4c(cc3[C@H](O)[C@H]3COC(=O)[C@@H]23)OCO4)cc(OC)c1OC [polymorph C, picropodophyllin]
solubility: 12.9 ± 0.17 µg/mL (≈ 31.2 µM)

Reference: patent publication US9314525B2, “Picropodophyllin polymorph C and its use in cancer therapy” (Axelar AB, priority 2010, dated 2016)
